Measured values as given in ChEMBL document CHEMBL1681690, “Discovery of TAK-733, a potent and selective MEK allosteric site inhibitor for the treatment of cancer” (Bioorg Med Chem Lett, 2011).

Amino acid sequences for entries named in this document (tags omitted).
UniProt Q02750, whole entry: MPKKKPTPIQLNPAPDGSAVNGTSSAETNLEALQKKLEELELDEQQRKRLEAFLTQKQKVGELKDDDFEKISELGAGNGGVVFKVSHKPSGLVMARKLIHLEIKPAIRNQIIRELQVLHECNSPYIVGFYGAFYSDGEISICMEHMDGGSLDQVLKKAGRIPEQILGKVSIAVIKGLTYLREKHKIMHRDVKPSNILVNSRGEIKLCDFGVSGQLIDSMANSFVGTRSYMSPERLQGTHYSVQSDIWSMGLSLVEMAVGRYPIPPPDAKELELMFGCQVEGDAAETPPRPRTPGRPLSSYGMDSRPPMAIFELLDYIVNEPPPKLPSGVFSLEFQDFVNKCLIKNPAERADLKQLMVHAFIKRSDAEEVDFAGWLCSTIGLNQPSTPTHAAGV

Target: Dual specificity mitogen-activated protein kinase kinase 1 (Homo sapiens, UniProt Q02750)

IC50: 26 nM
SMILES: Cn1cnc2c(c(Nc3ccc(I)cc3F)cc(=O)n2C)c1=O
